{
  "sequences": {"note": "Amino acid sequences for entries named in this document (tags omitted).", "UniProt Q8TDV0, whole entry": "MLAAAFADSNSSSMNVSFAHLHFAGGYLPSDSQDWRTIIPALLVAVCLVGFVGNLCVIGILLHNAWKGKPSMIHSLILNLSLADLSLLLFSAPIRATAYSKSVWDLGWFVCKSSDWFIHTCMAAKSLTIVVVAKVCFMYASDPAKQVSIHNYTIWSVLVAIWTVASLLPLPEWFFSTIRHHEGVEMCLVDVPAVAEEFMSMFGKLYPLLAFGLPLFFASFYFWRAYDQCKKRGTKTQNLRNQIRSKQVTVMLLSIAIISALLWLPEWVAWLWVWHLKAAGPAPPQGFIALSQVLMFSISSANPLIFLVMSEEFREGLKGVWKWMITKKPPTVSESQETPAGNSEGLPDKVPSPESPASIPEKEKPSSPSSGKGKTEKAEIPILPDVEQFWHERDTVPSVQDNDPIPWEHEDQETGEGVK"},
  "source": "PubChem BioAssay AID1508602",
  "about": "(The Scripps Research Institute Molecular Screening Center, 2020)",
  "note": "Only a part is listed here, and it is no random draw. Calls of active or inactive are those of the source. Cut-off read from the data, not from the text of the source: active = activation above about 4.9%; inactive = the rest.",
  "data": [
    {"target": "G-protein coupled receptor 151 (Homo sapiens) (UniProt Q8TDV0)", "test": "activators of human GPR151, primary screen, cell-based, PathHunter beta-arrestin, luminescence (AID 1508602);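 note: 0% = median of compound wells and 100% = cells with positive control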", "details": "PathHunter beta-arrestin GPR151 cells, at 11.2 µM, hits give high values", "values": [
      {"compound": "O=[N+]([O-])c1cc([N+](=O)[O-])c(Nc2ccccc2)c([N+](=O)[O-])c1", "activation": "inactive: 1.1%"},
      {"compound": "[O-][n+]1onc2c1c1no[n+]([O-])c1c1no[n+]([O-])c21", "activation": "inactive: -3.35%"},
      {"compound": "Cc1c([N+](=O)[O-])cc([N+](=O)[O-])c(Nc2ccc(C(=O)O)cc2)c1[N+](=O)[O-]", "activation": "inactive: -3.26%"},
      {"compound": "COc1cccc(C(OP(C)(=O)O)C(F)(F)F)c1", "note": "(stereo not given)", "activation": "inactive: 1.87%"},
      {"compound": "CP(=O)(Nc1ccc(Cl)cc1)Oc1ccc(F)cc1", "note": "(stereo not given)", "activation": "inactive: -0.655%"},
      {"compound": "CN(C)/C=C(\\C=O)c1c([N+](=O)[O-])cc([N+](=O)[O-])cc1[N+](=O)[O-]", "activation": "inactive: 1.63%"},
      {"compound": "CN(C)C(=O)c1c([N+](=O)[O-])cc([N+](=O)[O-])cc1[N+](=O)[O-]", "activation": "inactive: 0.537%"},
      {"compound": "O=[N+]([O-])c1cc([N+](=O)[O-])c(Nc2ccccc2CO)c([N+](=O)[O-])c1", "activation": "inactive: 0.398%"},
      {"compound": "CP(=O)(Nc1ccc(F)c(Cl)c1)Oc1ccccc1", "note": "(stereo not given)", "activation": "inactive: -0.214%"},
      {"compound": "O=C(Nc1ccccc1O)c1c([N+](=O)[O-])cc([N+](=O)[O-])cc1[N+](=O)[O-]", "activation": "inactive: -1.44%"},
      {"compound": "CN1CCCC1=C1c2cc([N+](=O)[O-])cc([N+](=O)[O-])c2-c2c1cc([N+](=O)[O-])cc2[N+](=O)[O-]", "activation": "inactive: 0.361%"},
      {"compound": "CCc1ccc(OP(C)(=O)Nc2ccc(I)cc2)cc1", "note": "(stereo not given)", "activation": "inactive: -0.696%"},
      {"compound": "COc1ccc(OP(C)(=O)Nc2ccc(Br)cc2)cc1", "note": "(stereo not given)", "activation": "inactive: 0.948%"},
      {"compound": "O=[N+]([O-])c1cc([N+](=O)[O-])c(NCc2ccccc2)c([N+](=O)[O-])c1", "activation": "inactive: -1.6%"},
      {"compound": "COc1ccccc1OP(C)(=O)Nc1c(C)n(C)n(-c2ccccc2)c1=O", "note": "(stereo not given)", "activation": "inactive: 0.424%"},
      {"compound": "OCCSCCO", "activation": "inactive: 1.31%"},
      {"compound": "CP(=O)(Oc1ccccc1)N1CCOC1=O", "note": "(stereo not given)", "activation": "inactive: -0.364%"},
      {"compound": "O=[N+]([O-])c1cc([N+](=O)[O-])c(N2CCOCC2)c([N+](=O)[O-])c1", "activation": "inactive: -0.727%"},
      {"compound": "COC(=O)Nc1nc2ccccc2[nH]1.O=C1CCCN1c1ccc(S(=O)(=O)O)cc1[N+](=O)[O-]", "activation": "inactive: -0.456%"},
      {"compound": "CCN(CC)c1c([N+](=O)[O-])cc([N+](=O)[O-])cc1[N+](=O)[O-]", "activation": "inactive: 0.231%"},
      {"compound": "CP(=O)(Nc1ccc2c(c1)OCCO2)Oc1ccccc1", "note": "(stereo not given)", "activation": "inactive: 0.872%"},
      {"compound": "Cc1ccccc1NP(C)(=O)Nc1ccccc1C", "activation": "inactive: -1.23%"},
      {"compound": "COc1ccc(OP(C)(=O)Nc2ccccc2)cc1", "note": "(stereo not given)", "activation": "inactive: -1%"},
      {"compound": "[N-]=[N+]=NCN1c2nonc2N(CN=[N+]=[N-])c2nonc21", "activation": "inactive: -0.966%"},
      {"compound": "Cc1c([N+](=O)[O-])c(C)c([N+](=O)[O-])c(C)c1[N+](=O)[O-]", "activation": "inactive: 2.09%"},
      {"compound": "Cc1ccc(Cl)c(OP(C)(=O)Nc2ccc(F)cc2)c1", "note": "(stereo not given)", "activation": "inactive: 0.179%"},
      {"compound": "CP(=O)(O)OC(c1ccccc1)C(F)(F)C(F)(F)F", "note": "(stereo not given)", "activation": "inactive: -0.404%"},
      {"compound": "O=[N+]([O-])c1cc([N+](=O)[O-])c(NCC2CCS(=O)(=O)C2)c([N+](=O)[O-])c1", "note": "(stereo not given)", "activation": "inactive: -0.558%"},
      {"compound": "Cc1cc(-c2cccc3ccccc23)c(C)cn1.O=[N+]([O-])c1cc([N+](=O)[O-])c(O)c([N+](=O)[O-])c1", "activation": "inactive: 0.729%"},
      {"compound": "CP(=O)(O)Oc1cccc(Cl)c1Cl", "activation": "active: 4.92%"},
      {"compound": "C=CCN1CCN(CCOC(=O)C(O)(c2ccccc2)c2ccccc2)CC1", "activation": "inactive: 0.617%"},
      {"compound": "O=[N+]([O-])c1ccc(Nc2c([N+](=O)[O-])cc([N+](=O)[O-])cc2[N+](=O)[O-])cc1", "activation": "inactive: -0.495%"},
      {"compound": "CN(C)CCOC(=O)C(O)(c1ccccc1)C1CCCCC1", "note": "(stereo not given)", "activation": "inactive: 0.321%"},
      {"compound": "O=[N+]([O-])c1cc([N+](=O)[O-])c(Nc2c([N+](=O)[O-])cc([N+](=O)[O-])cc2[N+](=O)[O-])c([N+](=O)[O-])c1", "activation": "inactive: -1.36%"},
      {"compound": "CC(=O)OC1(C#N)CN2CCC1CC2", "note": "(stereo not given)", "activation": "inactive: 1.58%"},
      {"compound": "COc1ccc(NP(C)(=O)Oc2ccccc2OC)cc1", "note": "(stereo not given)", "activation": "inactive: -0.804%"},
      {"compound": "CP(=O)(O)OC(c1ccccc1)C(Cl)(Cl)Cl", "note": "(stereo not given)", "activation": "inactive: 0.782%"},
      {"compound": "Cc1ccc(NP(C)(=O)Oc2ccc(Cl)cc2)cc1", "note": "(stereo not given)", "activation": "inactive: 0.859%"},
      {"compound": "COc1cc2c(cc1NP(C)(=O)Oc1ccccc1)oc1ccccc12", "note": "(stereo not given)", "activation": "inactive: 0.416%"},
      {"compound": "CP(=O)(Nc1ccccc1)Oc1ccc(F)cc1", "note": "(stereo not given)", "activation": "inactive: -1.09%"},
      {"compound": "O=C(c1c([N+](=O)[O-])cc([N+](=O)[O-])cc1[N+](=O)[O-])N1CCOCC1", "activation": "inactive: 0.135%"},
      {"compound": "CCOC(=O)c1ccc(NP(C)(=O)Oc2ccc(F)cc2)cc1", "note": "(stereo not given)", "activation": "inactive: -0.0097%"},
      {"compound": "Cc1ccc(Cl)c(OP(C)(=O)Nc2cccnc2)c1", "note": "(stereo not given)", "activation": "inactive: 0.151%"},
      {"compound": "O=C(OCCN1CCN(CCOCc2ccccc2)CC1)C(O)(c1ccccc1)c1ccccc1", "activation": "inactive: 1.23%"},
      {"compound": "CP(=O)(Nc1cccnc1)Oc1ccc(Cl)cc1", "note": "(stereo not given)", "activation": "inactive: 0.738%"},
      {"compound": "Cc1cc([N+](=O)[O-])c(NCC(C)([N+](=O)[O-])[N+](=O)[O-])c([N+](=O)[O-])c1[N+](=O)[O-]", "activation": "inactive: 1.13%"},
      {"compound": "CCP1(=O)Oc2cc(C(C)(C)C)cc(C(C)(C)C)c2O1", "note": "(stereo not given)", "activation": "inactive: 0.856%"},
      {"compound": "Nc1c([N+](=O)[O-])cc([N+](=O)[O-])c2nonc12", "activation": "inactive: 0.455%"},
      {"compound": "C=CCNc1c([N+](=O)[O-])cc([N+](=O)[O-])c(C)c1[N+](=O)[O-]", "activation": "inactive: 0.0096%"},
      {"compound": "CP(=O)(Nc1ccccc1F)Oc1ccccc1", "note": "(stereo not given)", "activation": "inactive: 2.92%"}
    ]}
  ]
}
